Patent publication US20200024223A1, “CRYSTALLINE SALTS OF (4S,4AS,5AR,12AS)-4-DIMETHYLAMINO-3,10,12,12A-TETRAHYDROXY-7-[(METHOXY(METHYL)AMINO)-METHYL]-1,11-DIOXO-1,4,4A,5,5A,6,11,12A-OCTAHYDRO-NAPHTHACENE-2-CARBOXYLIC ACID AMIDE AND METHODS OF USING THE SAME” (priority 2011, published 2020)

Columns and labels:
E. faecium = test: In vitro MIC testing, antibacterial spectrum of activity; assay type: cell-based; conditions: vancomycin-resistant E. faecium; fold higher than minocycline
E. cloacae = test: as above; conditions: fold higher than the other tetracyclines

Structure (SMILES): CON(C)Cc1ccc(O)c2c1C[C@H]1C[C@H]3[C@H](N(C)C)C(O)=C(C(N)=O)C(=O)[C@@]3(O)C(O)=C1C2=O [The Active, (4S,4aS,5aR,12aS)-4-dimethylamino-3,10,12,12a-tetrahydroxy-7-[(methoxy(methyl)amino)-methyl]-1,11-dioxo-1,4,4a,5,5a,6,11,12a-octahydro-naphthacene-2-carboxylic acid amide]
- MIC50 relative to that of minocycline (E. faecium): 8 fold
- MIC50 relative to those of the other tetracyclines (E. cloacae): 16- to 32 fold
